Measurements as given in US7033773B1, “Screening assays for G protein coupled receptor agonists and antagonists” (The General Hospital Corporation, priority 1997, dated 2006).

Columns and labels:
rat PTHR [1] = molecular target: T1, rat PTHR (Rattus norvegicus, UniProt P25961); assay: u-PA secretion bioassay in LLC-PK1 cells expressing rat PTHR; type: cell-based
T1 construct: expressed in transfected cells; host or cells: LLC-PK1 porcine renal epithelial cells (EW5; also EW29, AR-C38, AR-B44)
T1 sequence (P25961 27-591): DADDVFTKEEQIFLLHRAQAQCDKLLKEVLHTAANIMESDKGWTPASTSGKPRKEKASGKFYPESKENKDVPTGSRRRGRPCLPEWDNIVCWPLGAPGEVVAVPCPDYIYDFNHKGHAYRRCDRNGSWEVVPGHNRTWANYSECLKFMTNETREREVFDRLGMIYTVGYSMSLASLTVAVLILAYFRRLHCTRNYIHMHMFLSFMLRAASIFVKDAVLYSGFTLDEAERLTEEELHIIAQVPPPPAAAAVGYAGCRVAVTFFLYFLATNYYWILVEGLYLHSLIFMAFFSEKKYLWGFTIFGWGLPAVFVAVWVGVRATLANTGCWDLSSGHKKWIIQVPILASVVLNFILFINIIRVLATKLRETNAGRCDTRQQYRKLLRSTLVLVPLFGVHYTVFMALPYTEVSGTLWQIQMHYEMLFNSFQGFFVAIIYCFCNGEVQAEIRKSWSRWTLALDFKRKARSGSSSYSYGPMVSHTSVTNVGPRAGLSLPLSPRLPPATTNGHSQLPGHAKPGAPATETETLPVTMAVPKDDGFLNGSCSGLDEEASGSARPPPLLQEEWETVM

human PTH/PTHrP receptor = molecular target: T2, human PTH/PTHrP receptor (Homo sapiens, UniProt Q03431); assay: Urokinase-type plasminogen activator (u-PA) secretion bioassay in LLC-PK1 cells expressing human PTHR; conditions: AB45 cells (hPTHR + REV AB dominant-negative PKA inhibitor), 16 hr
T2 sequence (Q03431 27-593): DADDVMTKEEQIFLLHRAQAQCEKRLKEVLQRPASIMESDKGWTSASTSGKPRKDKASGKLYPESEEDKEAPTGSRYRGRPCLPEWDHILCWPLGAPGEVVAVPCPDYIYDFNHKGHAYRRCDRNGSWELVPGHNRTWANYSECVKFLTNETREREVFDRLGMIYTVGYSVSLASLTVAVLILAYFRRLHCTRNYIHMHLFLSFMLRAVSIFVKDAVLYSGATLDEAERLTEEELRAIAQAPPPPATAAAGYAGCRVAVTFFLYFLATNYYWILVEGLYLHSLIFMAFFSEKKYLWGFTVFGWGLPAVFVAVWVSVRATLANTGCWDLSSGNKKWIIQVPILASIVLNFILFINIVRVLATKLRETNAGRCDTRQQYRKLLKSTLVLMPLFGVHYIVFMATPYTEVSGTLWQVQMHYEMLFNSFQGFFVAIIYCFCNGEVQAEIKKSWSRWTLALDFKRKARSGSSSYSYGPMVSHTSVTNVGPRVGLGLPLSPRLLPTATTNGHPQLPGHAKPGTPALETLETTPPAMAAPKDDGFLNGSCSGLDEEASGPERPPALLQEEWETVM

rat PTHR [2] = molecular target: T1, rat PTHR; assay: Cellular phosphate uptake in LLC-PK1 cells expressing rat PTHR; type: cell-based; conditions: EW5 cells
Experimental: Cells were seeded into 24-well plates at a density of 2.5×10^5 cells/well and cultured for a further 2 days before study. Twenty four hours before assay, cells were refed with 0.5 ml of DMEM containing 0.1% BSA. The next day, cells were refed with serum-free medium (DMEM+0.1% BSA) containing drugs or peptides, and the incubations were continued at 37° C. under 5% CO2 in air for another 6 hr. Cells then were washed with prewarmed Buffer B without BSA and Na2HPO4 and then were incubated at 37° C. for 5 min in 0.25 ml of the same buffer containing [^32P]orthophosphate (4 uCi/ml) and 0.1 mM Na2HPO4. Phosphate uptake was arrested by adding 1 ml of ice-cold sodium-free “stop buffer” [10 mM HEPES (pH 7.4), 140 mM choline chloride, and 5 mM sodium arsenate], followed by two further washes with same buffer. The drained cell layer then was solubilized in 0.5 ml of Lysis Buffer, and cell-associated radioactivity was determined by Cerenkov counting, as previously described (Guo, J., et al., Endocrinology 136:3884-3891 (1995)).
Responses to hPTH(1-34) or hPTH(1-31) (1000 nM) were measured in EW5 cells, which express 320,000 rat PTHRs per cell. Each value is the mean±SEM of a representative experiment performed in triplicate. Similar results were obtained in at least 3 individual experiments. […]

## CC[C@H](C)[C@H](NC(=O)[C@H](CCC(=O)O)NC(=O)[C@H](CO)NC(=O)[C@@H](NC(=O)[C@@H](N)CO)C(C)C)C(=O)N[C@@H](CCC(N)=O)C(=O)N[C@@H](CC(C)C)C(=O)N[C@@H](CCSC)C(=O)N[C@@H](Cc1c[nH]cn1)C(=O)N[C@@H](CC(N)=O)C(=O)N[C@@H](CC(C)C)C(=O)NCC(=O)N[C@@H](CCCCN)C(=O)N[C@@H](Cc1c[nH]cn1)C(=O)N[C@@H](CC(C)C)C(=O)N[C@@H](CC(N)=O)C(=O)N[C@@H](CO)C(=O)N[C@@H](CCSC)C(=O)N[C@@H](CCC(=O)O)C(=O)N[C@@H](CCCNC(=N)N)C(=O)N[C@H](C(=O)N[C@@H](CCC(=O)O)C(=O)N[C@@H](Cc1c[nH]c2ccccc12)C(=O)N[C@@H](CC(C)C)C(=O)N[C@@H](CCCNC(=N)N)C(=O)N[C@@H](CCCCN)C(=O)N[C@@H](CCCCN)C(=O)N[C@@H](CC(C)C)C(=O)N[C@@H](CCC(N)=O)C(=O)N[C@@H](CC(=O)O)C(=O)N[C@H](C(=O)N[C@@H](Cc1c[nH]cn1)C(=O)N[C@@H](CC(N)=O)C(=O)N[C@@H](Cc1ccc(O)cc1)C(N)=O)C(C)C)C(C)C [hPTH(1-34), [Tyr^34]hPTH(1-34)]
Rat PTHR [1]; EW5 cells, 320,000 rat PTHRs per cell, peptide 1000 nM, mean±SEM
  u-PA Activity: 43.5 ± 1.8 units/well
Rat PTHR [1]; EW5 cells, 100 nM of either peptide
  u-PA production at 16 hr (in words): identical
Human PTH/PTHrP receptor
  u-PA response in cAMP-resistant cells (in words): dramatically attenuated but remained significantly greater than that achieved with a maximal concentration of 8BrcAMP
Rat PTHR [2]
  stimulation of phosphate uptake (in words): identical
